Laboratory results as given in patent US10538508B2 (dated 2020).

Amino acid sequences for entries named in this document (tags omitted). Residues count along the entry.
UniProt Q13231, 22-466: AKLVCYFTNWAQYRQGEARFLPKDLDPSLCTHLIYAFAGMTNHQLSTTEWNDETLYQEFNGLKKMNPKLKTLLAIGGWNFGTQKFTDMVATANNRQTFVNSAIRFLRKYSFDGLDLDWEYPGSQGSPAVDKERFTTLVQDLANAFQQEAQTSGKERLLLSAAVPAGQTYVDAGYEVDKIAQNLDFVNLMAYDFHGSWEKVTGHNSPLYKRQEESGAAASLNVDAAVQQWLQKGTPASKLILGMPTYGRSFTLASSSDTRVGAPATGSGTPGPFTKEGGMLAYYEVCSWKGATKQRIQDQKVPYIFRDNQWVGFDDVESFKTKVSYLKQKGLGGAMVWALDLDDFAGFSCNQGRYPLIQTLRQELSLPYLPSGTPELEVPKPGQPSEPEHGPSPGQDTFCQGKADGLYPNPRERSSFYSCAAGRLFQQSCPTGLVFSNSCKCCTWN

Target: recombinant human CHIT1 (Homo sapiens (Human), UniProt Q13231)
Test: Human CHIT1 Activity Assay
Format: biochemical
Conditions: read-out: Activity on hCHIT1, IC50; recombinant human CHIT1, citrate buffer pH 5.2, 37° C., 60 minutes

IC50: < 100 nM
SMILES: NC(=O)[C@H]1CN(C2CCN(c3nnc(N)[nH]3)CC2)[C@@H](Cc2ccc(Cl)cc2)CO1 [Example 9, (2R,5S)-4-(1-(5-amino-4H-1,2,4-triazol-3-yl)piperidin-4-yl)-5-(4-chlorobenzyl)morpholine-2-carboxamide]
